{
  "source": "patent US9670264B2",
  "about": "“Water soluble G-protein coupled receptor” (The Trustees of The University of Pennsylvania, priority 2013, dated 2017)",
  "system": "human μ opioid receptor expressed in HEK293 cells",
  "experiment": "Binding competition assay (TR-FRET/HTRF) between native human μ opioid receptor and water-soluble variants, with a fluorescent naltrexone-derived antagonist",
  "settings": "negative control added instead of a water-soluble variant",
  "text": "FIG. 7. […] Data is used to calculate HTRF ratios, and represent the mean±standard error of mean of quadruplicates. ΔF is used for the comparison of different runs of the same assay which reflects the signal to background of the assay. ΔF=[(Ratiosample−Ratiobackgroud)/Ratiobackgroud] (%).\nA recently developed methodology which uses a fluorescently labeled ligand and the native MUR was used to investigate the ligand-binding capabilities of the water-soluble receptors.",
  "data": [
    {"substance": "human serum albumin [HSA, reference compound]", "values": [
      {"measurement": "change in the fluorescence ratio (665 nm/620 nm)", "value": "no significant change"}
    ]}
  ]
}
